Results reported in patent US20240229101A1, “METHOD FOR DETECTING INTRACELLULAR ACTIVITY OF CYP ENZYMES” (NATIONAL INSTITUTE OF ADVANCED INDUSTRIAL SCIENCE AND …, priority 2021, published 2024).

System: CYP enzyme group
Experiment: Raman observation of HepaRG hepatocytes, signal of oxidized CYP enzyme group (1370, 1636 cm^-1)
Format: cell-based, human

CO[C@H]1/C=C/O[C@@]2(C)Oc3c(C)c(O)c4c(O)c(c(/C=N/N5CCN(C)CC5)c(O)c4c3C2=O)NC(=O)/C(C)=C\C=C\[C@H](C)[C@H](O)[C@@H](C)[C@@H](O)[C@@H](C)[C@H](OC(C)=O)[C@@H]1C [Rifampicin]
Raman signal intensity at a wavenumber of 1636 cm^-1 with increasing concentration (HepaRG hepatocytes, 0, 0.04, 0.4, 4 μM, 48 hr (FIG. 14)): increased | Raman signals at wavenumbers of 1370 and 1636 cm^-1 (HepaRG hepatocytes, 4 μM, 48 hr, compared with non-induced cell group (FIG. 6)): increased | median value of per-cell Raman signal at 1636 cm^-1 with dosage concentration (HepaRG, 0, 0.04, 0.4, 4 μM, statistically significant (FIG. 15)): increased | Raman signal at a wavenumber of 1636 cm^-1 derived from the CYP enzyme group (HepaRG, 4 μM from Day 6, measured on Day 8 (FIG. 25)): increases
